Earlier results in US11179415B1 (priority 2020, dated 2021).

How the values were obtained:
[1] = chicken; in drinking water up to several months; doses as high as 1000 mg/liter (1000 ppm or 0.1%); cited from earlier work
[2] = rat; in drinking water up to several months; doses as high as 1000 mg/liter (1000 ppm or 0.1%); cited from earlier work
[3] = mouse; in drinking water up to several months; doses as high as 1000 mg/liter (1000 ppm or 0.1%); cited from earlier work
[4] = rats; cited from earlier work

Substance: sodium chlorite [NaCLO2, reference compound]
- methemoglobin concentrations [1]: no significant increases
- methemoglobin concentrations [2]: no significant increases
- methemoglobin concentrations [3]: no significant increases
- lethal dose (LD) [4]: 140 mg/kg

Where two headings read alike, the source gives them in different places.
